Rango complex inh – inhibitors of Rango-importin beta complex formation. Q14974. Rango CFP/YFP FRET sensor + importin beta, 45 min. Potency, µM (series often up to 92.2 µM). actives 0.031% (n = 340,000); calls by dose curve; further: nearly all actives have a fitted effect of over 15% in size
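FRET biosensor Rango (snurportin 1 IBB between N-terminal EYFP and C-terminal Cerulean), 50 nM in PBS/1 mM DTT/0.02% Tween-20/0.1% BSA, preincubated 5 min RT with compound; 0.125 microM importin beta added, 45 min RT, CFP/YFP FRET ratio read.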
Abeta rescue – A-beta toxicity reversal in yeast; yeast expressing A-beta42, growth rescue, OD600, 48 h; response scale: 0% DMSO, 100% iron-clioquinol control; Potency, µM (doses to about 46.1 µM), actives largely listed as activators; actives 0.063% (n = 410,000); AID 1347071; further: nearly all actives have a fitted effect of over 55% in size
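Yeast growth medium received pinned compounds, then yeast cells expressing toxic A-beta were added; plates incubated at 30 C for 48 hr. Growth read as absorbance at 600 nm, normalized to DMSO and equimolar FeCl3 plus clioquinol controls.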
aSyn rescue – inhibitors of alpha-synuclein toxicity in yeast; Yeast expressing alpha-synuclein, growth rescue, BacTiter-Glo, 24 h; Potency, µM (series often up to 46.1 µM), actives largely listed as activators; actives 0.14% (n = 370,000); AID 652106; further: nearly all actives have a fitted effect of over 65% in size
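Galactose-induced alpha-syn yeast (OD600=0.02, raffinose-pregrown) + pinned cpd, 24 hr, 30 deg C; growth by BacTiter-Glo luminescence. Growth restoration scores as activation.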
TDP43 rescue – inhibitors of TDP-43 toxicity in yeast; TDP-43 expressing yeast growth rescue, BacTiter-Glo, 24 h; Potency, µM (highest dose often 46.1 µM), hits mostly activators; actives 1.8% (n = 410,000); further: nearly all actives have a fitted effect of over 50% in size
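In this qHTS, compounds that restore growth of yeast expressing TDP-43 appear as activators. Cells (OD600=0.02, galactose medium, raffinose-pregrown) are incubated with compound 24 hr at 30 deg C and growth is quantified by BacTiter-Glo.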
Rango release inh – prevents RanGTP from dissociating the Rango-importin beta complex; Biochemical FRET Rango-importin beta, RanGTP-induced dissociation; Potency, µM (highest dose often 46.1 µM); actives 0.071% (n = 340,000); AID 540253; calls by dose curve; further: nearly all actives have a fitted effect of over 45% in size
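Rango/importin beta premix (0.1/0.25 uM final), PBS + 1 mM DTT + 0.02% Tween-20 + 0.1% BSA; cpd 5 min RT; FRET pre-read; + RanGTP-RCC1 (0.6 uM Ran, 2 mM GTP, 0.2 uM RCC1); 45 min RT; FRET post-read, ex 430, em 486/530 nm.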
ASM inhibitor – inhibitors of human secretory acid sphingomyelinase; Potency, µM (highest dose often 57.5 µM), actives largely listed as inhibitors; AID 504937; placental ASM, HMU-PC fluorogenic substrate, 60 min; actives 0.006% (n = 340,000)
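Fluorescence read-out (Ex 386 nm, Em 447 nm) after stopping the reaction at pH 10. Enzyme: ASM from human placenta; substrate HMU-PC0, 9 uM final; 60 min, 37 °C. Compound preincubation 10 min, ambient temperature.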
Numbers stand for hits; i = inactive; ? = inconclusive; nt = no result given; [ ] = remark or other dose. A selection: hits, their analogues and other compounds. The true share with any hit is near 2%. Unless noted, the call rests on the fitted dose curve; in most records, active means well fitted curve in the direction sought with a large enough effect; inconclusive means small, poorly fitted or top-dose-only effect, or another doubt; inactive means no such curve, though single readings can be large; an effect the other way counts as inactive or inconclusive.

SMILES | Rango complex inh | Abeta rescue | aSyn rescue | TDP43 rescue | Rango release inh | ASM inhibitor
COc1ccc(/C(N)=N/OC(=O)Cc2cccs2)cc1 | i | i | i | ? | i | i
N/C(Cc1ccc(Cl)cc1Cl)=N\OC(=O)Cc1ccc(Cl)cc1 | i | i | i | 1.26µM | i | i
N/C(Cc1ccc(Cl)cc1Cl)=N\OC(=O)Cc1ccccc1 | i | i | i | ? | i | i
COc1ccc(C/C(N)=N/OC(=O)Cc2ccccc2)cc1 | i | i | i | 15.8µM | i | i
CCn1c(CN2CCCCC2)nc2cc(NC(=O)c3cc(OC)c(OC)c(OC)c3)ccc21 | nt | i | nt | i | nt | nt
CNC(=O)c1cc(-c2cccs2)on1 | nt | nt | i | nt | nt | nt
Cc1ccc(-c2nc3ccccn3c2Nc2ccccc2C)o1 | nt | nt | i | nt | nt | nt
COc1ccc(CC(=O)O/N=C(\N)Cc2ccc(OC)c(OC)c2)cc1 | i | i | i | ? | i | i
COc1ccc(/C(N)=N/OC(=O)CN(C)S(=O)(=O)c2ccccc2)cc1 | i | i | i | 12.6µM | i | i
COc1ccc(/C(N)=N/OC(=O)CN(C)S(=O)(=O)c2ccc(C)cc2)cc1 | i | i | i | i | i | i
COc1ccc(CC(=O)O/N=C(\N)Cc2ccc(OC)cc2)cc1 | i | i | i | 11.2µM | i | i
CCOC(=O)CCCC(=O)N1CCN(/[N+]([O-])=N/Oc2ccc([N+](=O)[O-])cc2[N+](=O)[O-])CC1 | nt | nt | i | nt | nt | nt
S=C(c1ccc(-c2cc(Cl)ccc2Cl)o1)N1CCOCC1 | i | i | i | 12.6µM | i | i
CCCCn1nc(NC(=O)c2cccc(Cl)c2)c2cc3ccc(C)cc3nc21 | nt | i | nt | i | nt | nt
COc1cc(/C=C2\C(=O)ON=C2c2ccccc2)cc(Br)c1O | i | i | i | 11.2µM | i | i
Cc1ccc(C2=NOC(=O)/C2=C\c2ccccc2)cc1 | i | ? | i | 25.1µM | i | i
CCOc1cc(/C=C2\C(=O)ON=C2c2ccccc2)cc(Br)c1O | i | i | i | ? | i | i
Cc1ccc(CN(Cc2ccco2)c2cnc(S(C)(=O)=O)nc2C(=O)Nc2ccccc2Br)o1 | nt | i | nt | i | nt | nt
Cc1cccc(-c2csc(N)c2C(=O)OC(C)C)c1 | i | i | i | 12.6µM | ? | i
CCOC(=O)c1c(-c2cccc([N+](=O)[O-])c2)csc1N | i | i | i | 17.8µM | i | i
CCCCCCCCCC[n+]1ccc(/C=C/c2ccc(N(C)C)cc2)c2ccccc21 | nt | nt | i | nt | nt | nt
COc1cccc2c1C(=O)c1c(O)c3c(c(O)c1C2=O)CC(O)(C(=O)CO)CC3OC1CC(N(C)C)C(O)C(C)O1 (stereo not given) | 58µM | i | ? | ? | i | i
COc1cccc2c1C(=O)c1c(O)c3c(c(O)c1C2=O)C[C@@](O)(C(=O)CO)C[C@@H]3O[C@H]1C[C@H](N)[C@@H](O)[C@H](C)O1 | i | i | ? | i | i | i
COc1ccc(NC(=O)c2sc3nc4c(c(-c5ccc(OC)cc5)c3c2N)C(=O)CC(C)(C)C4)cc1 | nt | i | nt | i | nt | nt
Cc1ccc(NC(=O)C2CCCN(S(=O)(=O)c3c(C)n[nH]c3C)C2)cc1C (stereo not given) | nt | i | nt | i | nt | nt
SMILES | Rango complex inh | Abeta rescue | aSyn rescue | TDP43 rescue | Rango release inh | ASM inhibitor
c1ccc(-c2nnc(CN3CCN(c4ccccc4)CC3)o2)cc1 | i | i | i | i | i | i
Cc1ccc(C2=NN(Cc3nnc(-c4ccccc4)o3)C(=O)SC2)cc1 | i | i | i | 17.8µM | i | i
CCOc1ccc(N2CC(c3nc4ccccc4n3CCCOc3ccccc3OC)CC2=O)cc1 (stereo not given) | nt | i | nt | i | nt | nt
CC(C)NC(=O)c1cc2c(Cl)nc3ccccc3c2s1 | nt | i | nt | i | nt | nt
CCOC(=O)c1[nH]c2ccccc2c1NC(=O)c1ccccc1OC | nt | i | nt | 25.1µM | nt | nt
Cc1ccc(NC(c2ccc(Cl)cc2)c2nnc(-c3cccc(F)c3)o2)cc1C (stereo not given) | nt | i | nt | i | nt | nt
COC(=O)c1cccc(NC(=O)COc2cccc([N+](=O)[O-])c2)c1 | i | i | i | 11.2µM | i | i
O=c1c2ccccc2nc(-c2ccc([N+](=O)[O-])cc2)n1O | i | i | ? | i[9.22 µM] | i | i
Cc1ccc(-c2nc3ccccc3c(=O)n2O)cc1 | i | i | 20µM | i | i | i
O=c1c2ccccc2nc(-c2ccccc2)n1Cc1ccc(Cl)cc1 | i | i | i | i | i | i
O=c1c2ccccc2nc(-c2ccccc2)n1Cc1ccccc1 | i | i | i | 22.4µM | i | i
O=[N+]([O-])c1cc(C(F)(F)F)ccc1Sc1nccn1Cc1ccccc1 | i | i | i | ? | i | i
O=[N+]([O-])c1ccc(Sc2nccn2Cc2ccccc2)c([N+](=O)[O-])c1 | i | i | i | 14.1µM | i | i
CC(C)[C@H]1COCCS(=O)(=O)N1Cc1cccc(Cl)c1 | i | i | i | 35.5µM | i | i
N/C(=N\OC(=O)c1ccc(Cl)cc1Cl)c1ccccc1 | i | i | i | i | i | i
N/C(=N\OC(=O)c1cccc2ccccc12)c1cccnc1 | i | i | i | 20µM | i | i
N/C(=N\OC(=O)c1cccc2ccccc12)c1cccc([N+](=O)[O-])c1 | i | i | i | i | i | i
N/C(=N\OC(=O)c1ccc(Cl)cc1Cl)c1cccnc1 | i | i | i | 12.6µM | i | i
COc1cccc(C(O)c2nc(-c3ccc(F)c(Cl)c3)cs2)c1 (stereo not given) | nt | i | ? | ? | nt | nt
COc1cccc(C(O)c2nc(-c3ccc4ccccc4c3)cs2)c1 (stereo not given) | nt | i | ? | 22.4µM | nt | nt
COc1cccc(C(O)c2nc(-c3cccc(F)c3)cs2)c1 (stereo not given) | nt | i | i | 22.4µM | nt | nt
CC(=O)NC(c1cccc(F)c1)c1nc(-c2cc3ccccc3o2)cs1 (stereo not given) | nt | i | i | ? | nt | nt
OC(c1ccc(F)cc1)c1nc(-c2cc3ccccc3o2)cs1 (stereo not given) | nt | ? | ? | 25.1µM | nt | nt
OC(c1ccc(F)cc1)c1nc(-c2cccc(F)c2)cs1 (stereo not given) | nt | i | i | 11.2µM | nt | nt
CCOC(=O)c1ccccc1NC(=O)Nc1cc2c(cc1N1CCCCC1)n(C)c(=O)n2C | nt | i | nt | i | nt | nt
CSc1ccc(CCNC(=O)CCn2c(=O)c3cccn3c3ccc(F)cc32)cc1 | nt | i | nt | i | nt | nt
CN1CCN(CCCNC(=O)c2cnn(-c3ccccc3)c2-n2cccc2)CC1 | nt | i | nt | i | nt | nt
CC(C)(C)OC(=O)NCC(=O)Oc1cc2oc(=O)cc(-c3ccccc3)c2cc1Cl | ? | i | i | ? | ? | i
O=C(Oc1cc2oc(=O)cc(-c3ccccc3)c2cc1Cl)C1CCCCC1 | ? | i[9.22 µM] | i | 3.55µM | ? | i
